Here are results for 2 compounds from ChEMBL document CHEMBL3886296, “Reactivators of organophosphorous inhibited acetylcholinesterase” (2015).

Protein sequences, listed by entry. Tags and fused reporters are not part of them. Residues count along the entry.
UniProt P22303, 32-614 limits assumed: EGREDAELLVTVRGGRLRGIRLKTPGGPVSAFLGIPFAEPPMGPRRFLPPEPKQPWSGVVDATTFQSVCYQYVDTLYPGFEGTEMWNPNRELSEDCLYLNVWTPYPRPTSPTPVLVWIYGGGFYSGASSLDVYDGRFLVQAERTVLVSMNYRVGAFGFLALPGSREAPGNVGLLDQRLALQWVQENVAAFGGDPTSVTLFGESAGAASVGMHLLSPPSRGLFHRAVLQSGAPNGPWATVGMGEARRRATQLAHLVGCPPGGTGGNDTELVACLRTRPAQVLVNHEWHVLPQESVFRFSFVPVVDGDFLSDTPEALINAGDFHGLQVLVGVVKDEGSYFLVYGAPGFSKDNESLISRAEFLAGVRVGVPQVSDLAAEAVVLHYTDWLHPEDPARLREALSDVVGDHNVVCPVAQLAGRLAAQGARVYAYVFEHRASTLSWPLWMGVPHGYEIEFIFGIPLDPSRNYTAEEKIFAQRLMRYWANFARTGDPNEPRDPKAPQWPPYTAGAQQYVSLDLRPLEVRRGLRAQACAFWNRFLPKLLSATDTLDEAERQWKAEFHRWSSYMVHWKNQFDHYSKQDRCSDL

The assay addresses Acetylcholinesterase (Homo sapiens, UniProt P22303). The assay can be described thus: Enzyme Inhibition Assay: Accordingly Ki is for uninhibited AChE. The higher the number, the less the native enzyme is inhibited by the reactivator compound, which is what one desires to achieve: reactivation of the inhibited AChE but little inhibition of native enzyme activity.

For `O=C(/C=N\O)c1ccc(OCC2CCN(Cc3ccccc3)CC2)nc1`, the affinity, expressed as Ki, was 31 nM.

Regarding `COc1ccc(CN2CCCCC2COc2ccc(C(=O)/C=N\O)cn2)cc1OC` (configuration not stated), the Ki is 233 nM.
